This passage reports Ratio IC50 results from ChEMBL document CHEMBL3259577, “Antagonists of the kappa opioid receptor” (Bioorg Med Chem Lett, 2014).

Where only a bound is given, the exact number is not on record here.

For test [1], the species on record is Homo sapiens. Description: Selectivity ratio of IC50 for mu opioid receptor (unknown origin) by HCS assay to IC50 for kappa opioid receptor (unknown origin) by DRx assay.
Test [2] is filed under the species Homo sapiens. Description: Selectivity ratio of IC50 for delta opioid receptor (unknown origin) by HCS assay to IC50 for kappa opioid receptor (unknown origin) by DRx assay.

As for `COc1ccc(N2CCN(CCCNC(=O)Cn3c(=O)c4cccn4c4c(C)ccnc43)CC2)cc1`, the Ratio IC50 in test [1] and in test [2] was above 10000 throughout.
